The record followed here is ChEMBL document CHEMBL5715949, “Discovery of a selective irreversible BMX inhibitor for prostate cancer” (ACS Chem Biol, 2013).

Protein sequences, listed by entry. Tags and fused reporters are not part of them. Residues count along the entry.
UniProt P00533, 25-1210 T790M limits assumed: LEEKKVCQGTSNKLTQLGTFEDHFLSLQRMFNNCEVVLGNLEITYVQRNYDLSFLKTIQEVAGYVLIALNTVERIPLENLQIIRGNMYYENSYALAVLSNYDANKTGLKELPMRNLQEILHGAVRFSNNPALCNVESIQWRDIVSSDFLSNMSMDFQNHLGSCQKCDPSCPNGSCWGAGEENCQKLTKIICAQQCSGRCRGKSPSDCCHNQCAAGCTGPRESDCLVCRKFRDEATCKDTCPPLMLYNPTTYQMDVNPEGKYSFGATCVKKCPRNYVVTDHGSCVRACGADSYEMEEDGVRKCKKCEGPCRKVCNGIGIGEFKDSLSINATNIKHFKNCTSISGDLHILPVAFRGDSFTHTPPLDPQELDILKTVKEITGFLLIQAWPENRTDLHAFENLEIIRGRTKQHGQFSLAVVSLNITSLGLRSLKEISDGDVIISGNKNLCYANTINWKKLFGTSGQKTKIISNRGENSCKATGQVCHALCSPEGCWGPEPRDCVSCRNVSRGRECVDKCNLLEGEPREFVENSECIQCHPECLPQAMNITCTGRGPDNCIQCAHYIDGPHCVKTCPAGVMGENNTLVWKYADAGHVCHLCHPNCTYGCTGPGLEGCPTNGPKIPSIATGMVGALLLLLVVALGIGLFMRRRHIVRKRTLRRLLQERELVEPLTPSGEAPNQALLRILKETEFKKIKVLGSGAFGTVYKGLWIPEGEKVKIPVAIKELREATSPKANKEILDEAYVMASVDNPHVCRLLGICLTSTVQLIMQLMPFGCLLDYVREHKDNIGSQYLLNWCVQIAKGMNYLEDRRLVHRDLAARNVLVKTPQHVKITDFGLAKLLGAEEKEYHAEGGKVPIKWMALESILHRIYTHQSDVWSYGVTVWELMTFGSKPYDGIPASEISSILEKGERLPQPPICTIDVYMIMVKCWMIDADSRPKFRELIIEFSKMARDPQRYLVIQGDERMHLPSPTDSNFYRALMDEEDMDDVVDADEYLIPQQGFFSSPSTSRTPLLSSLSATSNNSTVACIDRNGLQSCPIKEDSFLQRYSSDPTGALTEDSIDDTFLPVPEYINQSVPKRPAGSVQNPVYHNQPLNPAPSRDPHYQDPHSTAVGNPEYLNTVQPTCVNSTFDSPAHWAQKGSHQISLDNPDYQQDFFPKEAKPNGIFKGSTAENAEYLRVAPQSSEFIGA

The target of experiment [1] is Epidermal growth factor receptor (Homo sapiens, UniProt P00533, T790M).
A further experiment relates to BaF3. Put plainly: Antiproliferative activity against mouse BaF3 cells expressing TEL-fused JAK3 assessed growth inhibition incubated for 2 to 5 days by CellTiter-Glo assay. Format: functional. The conditions noted are these: time 2-5 day. For orientation: ATP-based viability assays read luminescence as a measure of living cells.

Each structure is given as a SMILES string.

By IC50 is commonly meant the concentration needed to halve the response being measured. Read a low IC50 as greater potency. Broadly, the GI50 is the concentration giving 50% growth inhibition. A high value points to less potent growth inhibition. Take `C=CC(=O)Nc1cc(-n2c(=O)ccc3cnc4ccc(-c5ccc(NS(C)(=O)=O)cc5)cc4c32)ccc1C`: the IC50 in experiment [1] came out at 0.175 µM. In the experiment with BaF3, this compound yielded a GI50 of 7.98 µM.
